Test [1] has as its target human μ opiate receptor (Homo sapiens, UniProt P35372). Kind of test: μ opiate receptor binding assay, membrane preparation of CHO-K1 cells, [3H]-naloxone (or DAMGO) displacement. The following applies: read-out: μ Ki; radioligand [3H]-naloxone 1 nmole/l; Cheng-Prusoff.
For test [2], the target named is ORL1 receptor (Homo sapiens, UniProt P41146). The test can be described thus: ORL1 receptor binding assay with 3H-nociceptin/orphanin FQ, membranes of recombinant CHO-ORL1 cells. The note with it: read-out: ORL1 Ki, 3H-nociceptin/orphanin FQ 0.5 nM.

Protein sequences, listed by entry. Tags and fused reporters are not part of them.
UniProt P35372, whole entry: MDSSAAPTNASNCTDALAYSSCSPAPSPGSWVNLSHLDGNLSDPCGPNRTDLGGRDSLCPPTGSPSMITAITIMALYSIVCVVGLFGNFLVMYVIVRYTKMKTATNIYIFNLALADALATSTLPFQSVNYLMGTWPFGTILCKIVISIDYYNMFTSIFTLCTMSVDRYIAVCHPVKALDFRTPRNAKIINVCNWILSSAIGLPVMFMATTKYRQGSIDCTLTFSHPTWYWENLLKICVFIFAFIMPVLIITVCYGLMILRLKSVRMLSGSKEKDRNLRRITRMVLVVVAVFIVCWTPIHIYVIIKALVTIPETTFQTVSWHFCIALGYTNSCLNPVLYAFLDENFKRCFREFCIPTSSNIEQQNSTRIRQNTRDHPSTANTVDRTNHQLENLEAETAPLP
UniProt P41146, whole entry: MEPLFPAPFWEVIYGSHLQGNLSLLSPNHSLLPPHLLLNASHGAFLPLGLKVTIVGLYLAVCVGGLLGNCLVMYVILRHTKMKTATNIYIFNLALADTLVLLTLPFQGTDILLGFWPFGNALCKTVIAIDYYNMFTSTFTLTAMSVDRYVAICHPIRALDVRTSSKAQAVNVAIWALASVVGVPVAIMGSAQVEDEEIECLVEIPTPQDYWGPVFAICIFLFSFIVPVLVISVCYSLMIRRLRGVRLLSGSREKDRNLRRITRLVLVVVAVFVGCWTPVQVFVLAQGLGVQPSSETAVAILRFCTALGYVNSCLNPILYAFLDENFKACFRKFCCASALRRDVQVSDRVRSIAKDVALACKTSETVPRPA

For the compound `CN(C)C1(c2ccccc2)CCC(=CC(=O)N2CCC(c3c[nH]c4ccccc34)C2)CC1` (centres unmarked), the Ki in test [1] worked out at 0.8 nM; in test [2], 20 nM.

These data come from patent US7759385B2, “4-substituted 1-aminocyclohexane compounds for utilization as ORL1-receptor and mu-opiate receptor ligands” (priority 2002, dated 2010).
